# Measurements reported in patent publication US11324832B2, “Tripartite modulators of endosomal G protein-coupled receptors” (Endosome Therapeutics, Inc., priority 2015, dated 2022).
# The chains behind the UniProt entries cited, without tags or fusion partners.
# UniProt P14600, whole entry: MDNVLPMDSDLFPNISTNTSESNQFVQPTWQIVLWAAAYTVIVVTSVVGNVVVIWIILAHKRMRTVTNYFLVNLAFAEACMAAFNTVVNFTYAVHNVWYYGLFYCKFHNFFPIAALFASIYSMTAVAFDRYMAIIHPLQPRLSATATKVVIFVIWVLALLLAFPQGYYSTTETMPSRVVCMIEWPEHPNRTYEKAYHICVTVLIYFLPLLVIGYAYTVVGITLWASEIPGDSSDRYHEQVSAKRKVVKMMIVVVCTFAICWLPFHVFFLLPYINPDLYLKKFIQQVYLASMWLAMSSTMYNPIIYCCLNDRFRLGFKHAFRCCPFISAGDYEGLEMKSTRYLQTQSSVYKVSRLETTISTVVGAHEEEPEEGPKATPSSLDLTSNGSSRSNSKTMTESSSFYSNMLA
# Assays:
# Type in all cases: cell-based
# NK1R [1] = target: T1, NK1R (Rattus norvegicus, UniProt P14600); assay: NK1R endocytosis in rat spinal cord slices; conditions: SP 1 μM, 5 min
# NK1R [2] = target: T1, NK1R; assay: BRET of NK1R trafficking (KRas-Venus, Rab5a-Venus) in HEK293 cells; set-up: Full length and truncated 6312 rat HA-NK1R have been described; expressed in transfected cells; host or cells: HEK293 (transient); conditions: agonist alone, SP 1, 10 nM
# Text: (§1) Bioluminescence Resonance Energy Transfer (BRET) was employed to quantitatively assess the proximity of the NK1R to key regulators of GPCR trafficking (βarrs), and resident proteins of plasma (KRas) and early endosomal (Rab5a) membranes in HEK293 cells (FIG. 1A). […] Endocytosis was dynamin- and clathrin-dependent because the dynamin inhibitor Dyngo 4a (Dy4), the clathrin inhibitor PitStop 2 (PS2) and expression of dominant negative dynamin K44E all blocked the decrease in NK1R-RLuc8/KRas-Venus BRET and the increase in NK1R-RLuc8/Rab5a-Venus BRET (FIG. 1E, F).
# (§2) HEK293 cells were transfected with the following cDNAs: 1 μg NK1R-RLuc8 or 1 μg CLR-RLuc8+1 μg Myc-RAMP1+4 μg KRas-Venus, 4 μg Rab5a-Venus, 4 μg βarr1-YFP, or 4 μg βarr2-YFP; or 1 μg NK1R+0.5 μg Gαq-RLuc8+1 μg Gβ1+4 μg Gγ2-Venus; or 1 μg NK1R+0.5 μg Gαq-RLuc8+1 μg Gβ1+1 μg Gγ2+4 μg Rab5a-Venus. After 48 h, cells were equilibrated in Hank's balanced salt solution (HBSS) at 37° C., and incubated with the RLuc substrate coelenterazine h (5 μM, 15 min). BRET ratios were determined using a microplate reader LUMIstar Omega (BMG LabTech) before and after challenge with SP (0.1-10 nM) or vehicle (dH2O).
# NK1R [3] = target: T1, NK1R; assay: BRET between NK1R-RLuc8 and βarr1/2-YFP in HEK293 cells; set-up: Full length and truncated 6312 rat HA-NK1R have been described; expressed in transfected cells; host or cells: HEK293 (transient); conditions: agonist alone
# Text: as §1, §2
# NK1R [4] = target: T1, NK1R; assay: FRET biosensors of compartmentalized signaling (ERK, PKC, cAMP) in NK1R-expressing HEK293 cells; set-up: Full length and truncated 6312 rat HA-NK1R have been described; expressed in transfected cells; host or cells: HEK293 (transient); conditions: agonist alone
# Text: To study the link between NK1R trafficking and signaling, the NK1R and Förster Resonance Energy Transfer (FRET) biosensors targeted to detect activated ERK in the cytosol (CytoEKAR) or nucleus (NucEKAR, FIG. 2A), activated PKC at the plasma membrane (pmCKAR) or in the cytosol (CytoCKAR, FIG. 2C), and cAMP at the plasma membrane (pmEpac2) or in the cytosol (CytoEpac2, FIG. 2E) were expressed in HEK293 cells. […] Dynamin WT magnified SP activation of nuclear ERK, whereas dynamin K44E abolished activation of nuclear ERK (FIG. 2G). […] Thus, clathrin- and dynamin-dependent NK1R endocytosis is required for activation of nuclear ERK, which also depends on βarrs and for activation of cytosolic PKC and cAMP.
# HEK293 cells were transfected with 55 ng/well rat NK1R with N-terminal HA. 11 epitope tag (HA-NK1R) or CLR plus RAMP1 and 40 ng/well FRET biosensors. FRET was assessed 48 h after transfection, following serum restriction (0.5% FBS overnight). For experiments using clathrin or dynamin siRNA, cells were transfected with 55 ng/well rat HA-NK1R, 40 ng/well FRET biosensor and 25 nM/well scrambled, clathrin or dynamin ON-TARGETplus SMARTpool siRNA (GE Dharmacon). FRET was assessed 72 h after transfection, following serum restriction (0.5% FBS overnight). Cells were equilibrated in HBSS at 37° C. and FRET was analyzed using a GE Healthcare INCell 2000 Analyzer. For GFP/RFP emission ratio analysis, cells were sequentially excited using a FITC filter (490/20) with emission measured using dsRed (605/52) and FITC (525/36) filters, and a polychroic optimized for the FITC/dsRed filter pair (Quad4). For CFP/YFP emission ratio analysis, cells were sequentially excited using a CFP filter (430/24) with emission measured using YFP (535/30) and CFP (470/24) filters, and a polychroic optimized for the CFP/YFP filter pair (Quad3). Cells were imaged every 1 min, allowing image capture of 14 wells per minute. Baseline emission ratio images were captured for 4 min. Cells were challenged with an EC50 concentration of SP (1 nM), GGRP (1 nM) or vehicle, and images were captured for 20 min. Cells were then stimulated with the positive control (200 nM phorbol 12,13-dibutyrate for ERK; 200 nM phorbol 12,13-dibutyrate with phosphatase inhibitor cocktail for PKC; 10 μM forskolin, 100 μM 3-isobutyl-1-methylxanthine, 100 nM PGE1 for cAMP) for 10 min to generate a maximal increase, and positive emission ratio images were captured for 4 min. Data were analyzed as described and expressed as emission ratios relative to baseline for each cell (F/F0). Cells with >10% change in F/F0 after stimulation with positive controls were selected for analysis.
substance,measurement,setting,value
"SP: substance P, NK1R agonist used as stimulus",NK1R endocytosis in lamina I neurons of spinal cord slices,NK1R [1],stimulated NK1R endocytosis
same,NK1R endocytosis (NK1R-RLuc8/KRas-Venus and NK1R-RLuc8/Rab5a-Venus BRET),NK1R [2],decreased NK1R-RLuc8/KRas-Venus BRET and concomitantly increased NK1R-RLuc8/Rab5a-Venus BRET
same,"recruitment of βarrs (BRET NK1R-RLuc8 / βarr1-YFP, βarr2-YFP)",NK1R [3],stimulated BRET between NK1R-RLuc8 and βarr1-YFP and βarr2-YFP
same,cytosolic PKC activity (FRET CytoCKAR),NK1R [4]; SP 1 nM,caused a rapid and sustained increase in cytosolic PKC activity
same,cytosolic cAMP (FRET CytoEpac2),NK1R [4]; SP 1 nM,caused a sustained increase in cytosolic cAMP
same,plasma membrane PKC activity (FRET pmCKAR),NK1R [4]; SP 1 nM,did not affect plasma membrane PKC activity
same,plasma membrane cAMP (FRET pmEpac2),NK1R [4]; SP 1 nM,transiently increased plasma membrane cAMP
same,cytosolic ERK activation (FRET CytoEKAR),NK1R [4]; imaged over 20 min,rapidly and transiently activated cytosolic ERK
same,nuclear ERK activation (FRET NucEKAR),NK1R [4]; imaged over 20 min,caused a delayed and sustained activation of nuclear ERK
